Data set [1] relates to LPS-induced HepG2 cells. Nature of the data set: ALT and AST in supernatant of LPS-induced HepG2 cells. To be noted: HepG2, 100 ng/mL LPS, compounds 10, 20, 40 μM; for LPS-elevated ALT level / LPS-elevated AST level: p < 0.01 vs. model.
Data set [2] deals with LPS-induced HepG2 cells. Nature of the data set: IL-4, IL-10 and TNF-α in supernatant of LPS-induced HepG2 cells (ELISA). (ELISA stands for enzyme-linked immunosorbent assay.)
Another data set has as its target recombinant human MAO-B (Homo sapiens, UniProt P27338). The data set can be described thus: Recombinant human MAO-B enzyme inhibition assay. Format: biochemical. To be noted: n = 3; for IC50: 10 concentrations starting from 10 μM.
Another data set has as its system HepG2 cells. Nature of the data set: Cytotoxicity assay (CCK-8). To be noted: 24 h; for survival (cell viability): HepG2, at any tested doses (10 to 100 μM), no significant viability reduction, p > 0.05.

Chains of the proteins cited; added tags and fusions are not shown.
UniProt P27338, whole entry: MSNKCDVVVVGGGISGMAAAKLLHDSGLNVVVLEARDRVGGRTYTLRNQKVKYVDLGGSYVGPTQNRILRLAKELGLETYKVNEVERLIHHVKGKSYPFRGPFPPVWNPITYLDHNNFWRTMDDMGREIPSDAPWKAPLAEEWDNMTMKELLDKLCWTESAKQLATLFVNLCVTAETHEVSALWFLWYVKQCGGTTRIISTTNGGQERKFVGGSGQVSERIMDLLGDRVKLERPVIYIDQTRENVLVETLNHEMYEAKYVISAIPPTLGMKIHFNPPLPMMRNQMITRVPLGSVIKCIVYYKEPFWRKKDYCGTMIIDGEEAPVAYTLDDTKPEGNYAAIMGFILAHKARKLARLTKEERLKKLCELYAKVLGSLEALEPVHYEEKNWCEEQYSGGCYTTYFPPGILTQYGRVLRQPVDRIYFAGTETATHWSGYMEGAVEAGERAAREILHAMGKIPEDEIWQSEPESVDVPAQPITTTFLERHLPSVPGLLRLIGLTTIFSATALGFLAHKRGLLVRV

We go through 4 compounds from paper PMC12704139, “(±)-Rutacycoumarins A and B: two pairs of unprecedented coumarin enantiomers from the aerial part of Ruta graveolens L. and chemically synthesized” (Pharmaceutical Biology, 2025).

Some results are limits rather than exact numbers.

The IC50 is the concentration that inhibits the measured activity by half. Take `CC1(C)CC1c1cc2ccc(O)cc2oc1=O` (single isomer, unassigned) [(+)-1]: in the data set on LPS-induced HepG2 cells [1], the “LPS-elevated ALT level” value is “significantly reduced” and the “LPS-elevated AST level” value is “significantly reduced”. In the data set on LPS-induced HepG2 cells [2], the “LPS-induced inflammatory response (pro-inflammatory cytokines)” value (“LPS-induced inflammatory response” below) is “significantly inhibited”. Also, at recombinant human MAO-B, the “Residual activity at 10 μM (%)” value worked out at 61% and the IC50 worked out at 7.26 µM. The “dose-dependent cytotoxicity, concentration” value with HepG2 cells (HepG2, 10 to 100 μM, p < 0.05 vs. vehicle control) is on record as “above 80 μM”.
Regarding `COc1cc2cc(C3CC3(C)C)c(=O)oc2cc1O` (single isomer, unassigned) [(+)-2], in the data set with LPS-induced HepG2 cells [1], the “dose dependence of ALT and AST suppression” value (shortened to “dose dependence”) was “Dose-dependent suppression”; the “LPS-elevated ALT level” value was “significantly reduced”; the “LPS-elevated AST level” value is listed as “significantly reduced”. Also, in the data set with LPS-induced HepG2 cells [2], the “LPS-induced inflammatory response” value was “significantly inhibited”. In addition, on recombinant human MAO-B, the “Residual activity at 10 μM (%)” value is reported as 37% and the IC50 was determined as 22.1 µM. The “survival (cell viability)” value in the data set with HepG2 cells was no less than 98%.
As to `CC1(C)CC1c1cc2ccc(O)cc2oc1=O` (single isomer, unassigned) [(−)-1], in the data set with LPS-induced HepG2 cells [1], the “dose dependence” value was “maximum efficacy at 10 μM”; the “LPS-elevated ALT level” value is “significantly reduced”; the “LPS-elevated AST level” value is “significantly reduced”. Also, the “LPS-induced inflammatory response” value in the data set on LPS-induced HepG2 cells [2] was “significantly inhibited”. Also, the “potency in cytokine modulation (IL-4, IL-10, TNF-α)” value with LPS-induced HepG2 cells [2] (at 10 μM) is “exceptional potency”. In addition, at recombinant human MAO-B, the “Residual activity at 10 μM (%)” value was found to be 64% and the IC50 worked out at 8.72 µM. In addition, the “survival (cell viability)” value in the data set with HepG2 cells is recorded as no less than 98%.
For `COc1cc2cc(C3CC3(C)C)c(=O)oc2cc1O` (single isomer, unassigned) [(−)-2], the “dose dependence” value in the data set with LPS-induced HepG2 cells [1] is recorded as “Dose-dependent suppression”. Besides, at recombinant human MAO-B, the “Residual activity at 10 μM (%)” value was 37% and the IC50 stood at 30 µM. For the same compound, the “survival (cell viability)” value in the data set with HepG2 cells is no less than 98%.
